These results are taken from ChEMBL document CHEMBL1136760 (J Med Chem, 2003).

The chains behind the UniProt entries cited, without tags or fusion partners.
UniProt P31652, whole entry: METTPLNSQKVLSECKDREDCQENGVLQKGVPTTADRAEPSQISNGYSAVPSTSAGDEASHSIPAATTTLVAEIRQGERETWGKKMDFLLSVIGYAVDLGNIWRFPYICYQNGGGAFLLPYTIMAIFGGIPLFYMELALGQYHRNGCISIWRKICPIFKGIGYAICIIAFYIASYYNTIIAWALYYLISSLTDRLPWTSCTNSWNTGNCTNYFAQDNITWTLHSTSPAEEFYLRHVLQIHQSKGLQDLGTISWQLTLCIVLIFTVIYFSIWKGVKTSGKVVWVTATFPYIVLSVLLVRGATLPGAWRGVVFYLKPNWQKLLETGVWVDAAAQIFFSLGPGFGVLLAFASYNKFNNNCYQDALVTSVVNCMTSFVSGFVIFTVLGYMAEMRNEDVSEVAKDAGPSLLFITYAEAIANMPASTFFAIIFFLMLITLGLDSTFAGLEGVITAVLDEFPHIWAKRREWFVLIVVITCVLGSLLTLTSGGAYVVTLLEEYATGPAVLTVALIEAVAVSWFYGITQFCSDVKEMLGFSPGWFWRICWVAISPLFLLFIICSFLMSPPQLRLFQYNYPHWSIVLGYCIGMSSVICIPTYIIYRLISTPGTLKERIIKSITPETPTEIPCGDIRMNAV

The experiment deals with Sodium-dependent serotonin transporter (Rattus norvegicus, UniProt P31652). The experiment in a line: Inhibition of [3H]citalopram binding to Serotonin transporter (5-HTT) in rat cortical tissue. The method, boiled down:
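Rat cortical P2 fraction homogenized in 16 volumes of ice-cold 25 mM sodium phosphate, pH 7.7. [3H]citalopram at 2 nM final; 1 µM clomipramine defines nonspecific binding. Usually seven drug concentrations, triplicates, organic solvent ≤0.3 vol %. Incubated 3 h at 0 °C, then filtered on PEI-soaked glass fibre and counted. IC50 and Hill coefficients from dose-response curves.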

In the case of `COC(=O)[C@H]1[C@@H](OC(=O)c2ccccc2)C[C@@H]2CC[C@H]1N2C` [COCAINE], the IC50 came to 389 nM. This counts as sub-micromolar.
